Reference: US10549237B2, “Regenerable draw solute for osmotically driven processes” (NANYANG TECHNOLOGICAL UNIVERSITY, priority 2015, dated 2020)

Experiment: Osmotic pressure of the crystallization supernatant estimated from the FO water flux test
Type: physicochemical

osmotic pressure of supernatant: ≤ 35 bar | osmotic pressure of supernatant (7.5 wt % supernatant (cooling to 20° C.), corresponds to 3.4 wt % NaCl): about 26 bar
Substance: Disodium phosphate

Like-named read-outs stand apart in the source and are kept apart here.
